Values quoted from earlier work in US11466029B2, “Compounds useful to treat influenza virus infections” (Nanjing Zhengxiang Pharmaceuticals Co., Ltd., priority 2019, dated 2022).

What was measured:
[1] = monkey, in vivo; cited from earlier work
[2] = rat, in vivo; cited from earlier work

**Q.** What does the source list for `COC(=O)OCOc1c2n(ccc1=O)N([C@@H]1c3ccccc3SCc3c1ccc(F)c3F)[C@@H]1COCCN1C2=O` [baloxavir marboxil]?
**A.** effect of feeding conditions on oral bioavailability of baloxavir [1]: largely affected by feeding conditions; oral bioavailability of baloxavir [2]: 9.8-14.7%
